{
  "sequences": {"note": "Sequences of proteins named here, by UniProt entry; tags and fusion partners are left off.", "UniProt P05186, whole entry": "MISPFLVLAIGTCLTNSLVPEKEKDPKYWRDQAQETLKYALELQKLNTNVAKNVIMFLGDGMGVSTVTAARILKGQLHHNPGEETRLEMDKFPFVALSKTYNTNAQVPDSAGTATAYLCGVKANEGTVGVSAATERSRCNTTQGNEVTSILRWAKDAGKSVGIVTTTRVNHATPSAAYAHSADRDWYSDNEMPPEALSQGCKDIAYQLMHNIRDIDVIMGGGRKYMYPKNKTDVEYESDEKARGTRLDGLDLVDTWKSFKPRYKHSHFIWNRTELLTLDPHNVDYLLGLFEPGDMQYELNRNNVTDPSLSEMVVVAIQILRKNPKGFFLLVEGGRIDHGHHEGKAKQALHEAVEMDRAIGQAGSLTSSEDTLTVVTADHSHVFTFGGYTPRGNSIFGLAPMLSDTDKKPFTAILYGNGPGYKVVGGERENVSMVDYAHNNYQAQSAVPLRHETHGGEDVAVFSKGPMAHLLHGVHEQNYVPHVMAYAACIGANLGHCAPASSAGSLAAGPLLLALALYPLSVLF"},
  "source": "PubChem BioAssay AID813",
  "about": "(Sanford-Burnham Center for Chemical Genomics, 2007)",
  "note": "This is a selection; strong and weak results do not stand in their true shares. Activity calls are given as the source filed them.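 The calls were made as follows: active = activation factor of at least 2 at 20 µM, relative to controls; inactive = the rest.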",
  "data": [
    {"target": "Alkaline phosphatase, tissue-nonspecific isozyme (Homo sapiens) (UniProt P05186)", "assay": "human TNAP enzyme activators, primary screen, biochemical, luminescent, intermediate phosphate acceptor level (AID 813)", "conditions": "purified TNAP, CDP-star luminescence, 100 mM DEA, 30 min, at 20 µM; active compounds read high, scale: 0 levamisole-inhibited, 1 vehicle-only enzyme", "values": [
      {"smiles": "COc1ccccc1OP(C)(=O)Nc1ccc(C)cc1", "note": "(stereo unspecified)", "activation factor": "inactive"},
      {"smiles": "Cc1ccc(NP(C)(=O)Oc2ccccc2)c(C)c1", "note": "(stereo unspecified)", "activation factor": "inactive"},
      {"smiles": "CCOP(C)(=S)SCC(=O)NC(C)C(=O)O", "note": "(stereo unspecified)", "activation factor": "inactive"},
      {"smiles": "COP1(=S)c2c(C)nn(CCC#N)c2N=C(c2ccc(F)cc2)N1C", "note": "(stereo unspecified)", "activation factor": "inactive"},
      {"smiles": "CP(=O)(NC(=O)Nc1ccccc1)Oc1ccccc1", "note": "(stereo unspecified)", "activation factor": "inactive"},
      {"smiles": "O=C(COc1ccccc1)OC1CN2CCC1CC2", "note": "(stereo unspecified)", "activation factor": "inactive"},
      {"smiles": "CP(=S)(Nn1cnnc1)Oc1ccccc1", "note": "(stereo unspecified)", "activation factor": "inactive: 0.8"},
      {"smiles": "Cc1ccc(OCC(=O)OC2CN3CCC2CC3)cc1", "note": "(stereo unspecified)", "activation factor": "inactive"},
      {"smiles": "O=P1(Nc2ccc(Br)cn2)COc2ccccc2OC1", "activation factor": "inactive"},
      {"smiles": "Cc1nn(-c2ccccc2)c2c1P(=O)(N1CCOCC1)N(C)C(c1ccccc1)=N2", "note": "(stereo unspecified)", "activation factor": "inactive"},
      {"smiles": "Cc1nc2ccc3ccccc3c2s1.O=[N+]([O-])c1cc([N+](=O)[O-])c(O)c([N+](=O)[O-])c1", "activation factor": "inactive"},
      {"smiles": "O=P1(Nc2ccccn2)COc2ccccc2OC1", "activation factor": "inactive"},
      {"smiles": "Cc1ccc(C)c(NP(C)(=O)Oc2ccccc2)c1", "note": "(stereo unspecified)", "activation factor": "inactive"},
      {"smiles": "Cc1cccc(OCC(=O)OC2CN3CCC2CC3)c1", "note": "(stereo unspecified)", "activation factor": "inactive"},
      {"smiles": "CCOP1(=S)c2c(C)nn(CCC#N)c2N=C(c2ccccc2F)N1C", "note": "(stereo unspecified)", "activation factor": "inactive"},
      {"smiles": "O=P(Nc1nccs1)(c1ccccc1)c1nc2ccccc2s1", "note": "(stereo unspecified)", "activation factor": "inactive"},
      {"smiles": "O=P1(Nc2nc3ccc(Cl)cc3s2)COc2ccccc2O1", "note": "(stereo unspecified)", "activation factor": "inactive"},
      {"smiles": "CP(=O)(Nc1ccccc1F)Oc1ccccc1", "note": "(stereo unspecified)", "activation factor": "inactive: 1"},
      {"smiles": "CP(=O)(Nc1ccc2c(c1)OCCO2)Oc1ccccc1", "note": "(stereo unspecified)", "activation factor": "inactive: 0.8"},
      {"smiles": "Cc1ccccc1NP(C)(=O)Nc1ccccc1C", "activation factor": "inactive: 1"},
      {"smiles": "CCOP(C)(=S)SCC(=O)NC(C)(CC)C(=O)O", "note": "(stereo unspecified)", "activation factor": "inactive"},
      {"smiles": "c1nnnn1CCn1cnnn1", "activation factor": "inactive"},
      {"smiles": "O=C(OC1CN2CCC1CC2)c1cccc(Cl)c1", "note": "(stereo unspecified)", "activation factor": "inactive"},
      {"smiles": "CN(C)CCOC(=O)C(O)(c1ccccc1)C1CCCCC1", "note": "(stereo unspecified)", "activation factor": "inactive"},
      {"smiles": "CCN(CC)CC(O)COC(=O)C(O)(c1ccccc1)C1CCCCC1", "note": "(stereo unspecified)", "activation factor": "inactive"},
      {"smiles": "COc1ccccc1OP(C)(=O)Nc1c(C)n(C)n(-c2ccccc2)c1=O", "note": "(stereo unspecified)", "activation factor": "inactive: 1"},
      {"smiles": "CP(=O)(Oc1ccccc1)N1CCOC1=O", "note": "(stereo unspecified)", "activation factor": "inactive"},
      {"smiles": "CCc1nc2c(n1)c1c(non1O)c1c2no[n+]1[O-]", "activation factor": "inactive"},
      {"smiles": "CP(=O)(Nc1ccccn1)Oc1ccccc1", "note": "(stereo unspecified)", "activation factor": "inactive: 1.1"},
      {"smiles": "Cc1nc2ccc3ccccc3c2o1.O=[N+]([O-])c1cc([N+](=O)[O-])c(O)c([N+](=O)[O-])c1", "activation factor": "inactive"},
      {"smiles": "COc1ccccc1OP(C)(=O)Nc1ccc(C)c(C)c1", "note": "(stereo unspecified)", "activation factor": "inactive"}
    ]}
  ]
}
